{"source": "patent US20260077055A1", "about": "“COMPOSITIONS OF POLYPLEXES AND SAPONINS” (SAPREME TECHNOLOGIES B.V., priority 2022, published 2026)", "key": {"EGFR+ A431 cells": {"tested_on": "EGFR+ A431 cells", "assay": "Cell viability (MTS) after polyplex transfection of A431 cells", "format": "cell-based", "experimental": "(§1) Spectrophotometry: Concentrations were determined using either a Thermo Nanodrop 2000 spectrometer or Perkin Elmer Lambda 365 Spectrophotometer. DLS measurements: DLS measurements were performed on a Malvern Nano ZS (Malvern Instruments, U.K.), operating at 633 nm with a 173° scattering angle, at 25 or 37° C. DLS mean diameters were obtained from the intensity particle size distribution provided by Malvern Zetasizer Software. DLS histograms were obtained from the intensity particle size distributions. Zeta-potential: The zeta-potential values of the polyplexes were obtained by laser doppler anemometry (LDA), measuring the mean electrophoretic mobility (Malvern Zetasizer Nano ZS, Malvern Instruments, U.K.). Measurements were performed in 10 mM HEPES pH 7.1, 150 mM NaCl. TEM measurements: TEM measurements were performed on a JEOL JEM-1011 operated at 100 kV electron microscope, equipped with a camera S5 MegaView G2. […] Infrared Spectroscopy: FT-IR spectra were recorded on a Bruker Vertex 70v, equipped with a RockSolid interferometer, after preparing the samples (1-2 mg) as KBr pellets. […] NMR Spectroscopy: 1H NMR spectra were recorded on a 11.7 T Bruker DRX-500 spectrometer. […] Experiments were recorded acquiring 64-512 scans, with a pre-scan delay (d1) of 12 s, and an acquisition time (aq) of 4 s at 300 K. 13C NMR spectrum was recorder on a 9.39 T Varian Innova 400 spectrometer. […]"}, "EGFR-A2058 cells": {"tested_on": "EGFR-A2058 cells", "assay": "Cell viability (MTS) after polyplex transfection of A2058 cells", "format": "cell-based", "experimental": "as §1"}, "[1]": {"settings": "co-administered with PAMAM G5(PEG-N3)6.2 npSaporin polyplexes, 73 nM Cetuximab-SO1861 or 4 μM SO1861-EMCH, 72 h"}}}
{"substance": "Cetuximab-SO1861: Cetuximab conjugated via cysteines with SO1861-EMCH, 4 SO1861 moieties per antibody (DAR4)", "values": [{"measurement": "cytoplasmic delivery of npSaporin / cell killing", "setting": "EGFR+ A431 cells; [1]", "result": "very strong enhancement in cytoplasmic delivery of the npSaporin"}, {"measurement": "plasmid concentration from which cell killing occurs", "setting": "EGFR+ A431 cells; polyplexed npSaporin (PAMAM G5 or PAMAM G5 (PEG-N3)6) co-administered with Cetuximab-SO1861 (DAR4)", "result": "≥ 10", "unit": "PM"}, {"measurement": "cytoplasmic delivery of npSaporin / cell killing", "setting": "EGFR-A2058 cells; [1]", "result": "not in the EGFR-cell line A2058"}, {"measurement": "cell killing by polyplexed npSaporin", "setting": "EGFR-A2058 cells; co-administration of Cetuximab-SO1861 (DAR4), no EGFR expression", "result": "this cell killing was not observed"}]}
